# In BindingDB's records for PubMed 8114680 (University of Pennsylvania, 1994):
# By UniProt entry, the sequences of proteins in these tests, tags left out.
# UniProt P35372, whole entry: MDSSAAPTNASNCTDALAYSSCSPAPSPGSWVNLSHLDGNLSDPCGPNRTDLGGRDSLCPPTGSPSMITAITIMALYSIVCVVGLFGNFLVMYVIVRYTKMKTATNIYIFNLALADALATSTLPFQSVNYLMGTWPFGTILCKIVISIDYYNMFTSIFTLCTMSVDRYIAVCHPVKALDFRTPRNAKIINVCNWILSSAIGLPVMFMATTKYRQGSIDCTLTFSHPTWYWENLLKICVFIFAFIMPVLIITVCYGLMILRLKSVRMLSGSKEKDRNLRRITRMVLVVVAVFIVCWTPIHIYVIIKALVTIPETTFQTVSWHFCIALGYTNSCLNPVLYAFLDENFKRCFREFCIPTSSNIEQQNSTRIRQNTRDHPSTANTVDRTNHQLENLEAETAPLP
# Biological target: Mu-type opioid receptor (Homo sapiens, UniProt P35372)
smiles,measurement,value
CCC12CCN(CC3(O)CC3)C(Cc3ccc(O)cc31)C2(C)C (stereo unspecified),Ki,750 pM
